Experimental data as given in article PMC6695191, “Antifungal compounds from Streptomyces associated with attine ants also inhibit Leishmania donovani” (PLoS Neglected Tropical Diseases, 2019).

Experiment: Selectivity assay on THP-1 macrophages (Alamar Blue)
Assay type: cell-based
Settings: human, 120 h incubation, mean ± SD, n = 2 biological replicates
Experimental: Leishmania donovani axenic cultures (strain MHOM/ET/67/HU3) were maintained in M199 medium (pH 7.4) supplemented with 10% heat-inactivated fetal calf serum (FCS) and grown at 28°C [22].
After incubation for 72 hours (5% CO2, 37°C), medium was aspirated, compounds were added in serial dilutions (100 μL) and the plates were incubated for 120 h. All plates included negative controls and doxorubicin as a positive control. Following incubation, 10 μL of Alamar Blue was added to each well and then the plates were incubated for 3 hours. […] Growth inhibition was expressed as a percentage of the fluorescence of the negative control wells. IC50 values were determined as described above for the promastigote and amastigote assays.

## C/C=C(\C)[C@H](O)[C@H](C)/C=C(C)/C=C/C/C(C)=C/Cc1nc(OC)cc(O)c1C [Compound 1, Mer-A2026B]
  CC50 at 120 h: > 64 µM
